# Assay results from PMC6471528, “Biological Evaluation and Molecular Docking Studies of Dimethylpyridine Derivatives” (Molecules, 2019).
# Tested on: NHDF (normal human dermal fibroblasts)
# Experiment: Sulforhodamine B cytotoxicity assay, NHDF
# Type: cell-based
# Conditions: SRB assay, 48 h, mean (SD), n = 3
# Source text: The sulforhodamine B assay was used to estimate the cytotoxic properties of the compounds. The cytotoxic activity of dimethylpyridine derivatives was studied against human cancer cell lines: A549 (pulmonary basal cell alveolar adenocarcinoma) and LoVo (colon adenocarcinoma). Additionally, the effect of compounds on NHDF (normal human dermal fibroblasts) and normal cell line V79 (fibroblast from Chinese hamster lung) was examined.
# Normal human dermal fibroblasts (NHDF) from adult donors were purchased from Lonza (Verviers, Belgium). Normal cell line V79 (fibroblast from Chinese hamster lung) and human cancer cell lines, A549 (pulmonary basal cell alveolar adenocarcinoma) and LoVo (colon adenocarcinoma) were obtained from the European Collection of Authenticated Cell Cultures (ECACC).
# Cells were grown in the culture media recommended by the cell line supplier. Before the test, adherent cells were detached with the trypsin EDTA solution, and FBS-containing medium was used to neutralize the effects of the trypsin/EDTA solution. After that, cells were spun down, counted, stained with a 0.4% solution of trypan blue and inspected under a microscope for cell viability. Then, cells were placed on 96-well plastic culture plates (2 × 10^3 cells/well) and incubated at 37 °C in a CO2-incubator for 24 h. […] Finally, cells were harvested and intended for the cell proliferation test. […]
smiles,measurement,value
"CN1C(C(=O)Nc2ccccn2)=C(O)c2ccccc2S1(=O)=O [Piroxicam, reference compound]",IC50,170 µM
